Shown are actives, neighbours in structure and some others; about 2.2% of the full set was active somewhere.
A549 tox – counter-screen for Nrf2 inhibitors: cytotoxicity in A549 cells; Potency, µM (series often up to 46 µM), for inactives: at the highest dose activity change, negative = cytotoxicity, hits mostly inhibitors; A549 ARE-Fluc cells, CellTiter-Fluor viability, 18-24 h; actives 0.16% (n = 390,000); further: potency means the concentration at half of the fitted maximal effect; on the % scale 0 is the no-effect control and ±100 the full control effect
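Cytotoxicity counterscreen: CellTiter-Fluor fluorescence was measured in A549 ARE_Fluc cells after 18-24 h of compound exposure in a concentration series. The subsequent BugLite luminescent read reports ARE-luciferase activity.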
B2AR arrestin – agonists driving beta-arrestin recruitment to human beta2-adrenergic receptor; beta-arrestin recruitment to beta2AR, cell-based reporter; actives 0.02% (n = 330,000); P07550; Potency, µM (highest dose often 46.1 µM), for inactives: at the top dose activation, usual class: activators;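 further: potency means the concentration at half of the fitted maximal effect; 0% = DMSO controls and full agonism = EC100 isoproterenol or metaproterenol; nearly all actives have a fitted effect of over 65% in size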
miR-21 reporter – miR-21 reporter, rising signal | Potency, µM (highest dose often 38.3 µM), for inactives: at the highest dose reporter change, positive = more light | 340,000 tested, under 10 active | HeLa miR-21 FLuc reporter, luciferase, 48 h; active = well fitted rising curve with a large enough effect; inconclusive = small, poorly fitted or top-dose-only effect; inactive = no such curve, though single readings can be large or run the other way;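 note: % of control where 0% means no effect; miR-21 action dims this reporter so a rising signal means less miR-21 action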
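Compounds were titrated across several concentrations (up to approximately 40 uM) and incubated 48 hours with HeLa miR-21-FLuc reporter cells (miR-21 target sequence downstream of FLuc, endogenous miR-21). Readout was firefly luciferase luminescence after lytic detection reagent.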
Nrf2 ARE act – Nrf2 pathway activation; AID 624171; Potency, µM (top dose mostly 46.1 µM), for inactives: at the top dose activation, usual class: activators; AREc32 ARE-luciferase reporter (MCF7-derived line), luminescence, 24 h; actives 0.31% (n = 410,000); further: potency means the concentration at half of the fitted maximal effect; % of control where 0% means no effect; nearly all actives have a fitted effect of over 65% in size
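ARE-driven firefly luciferase activity in AREc32 cells measured after a 24 hr compound exposure at 37 deg C, using Steady-Glo reagent and a 30 min room-temperature hold.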
Nrf2 block – Nrf2 pathway inhibition; A549 ARE-Fluc reporter, luciferase luminescence, 18-24 h; Potency, µM (top dose mostly 46 µM), for the others: top-dose activity change, negative = inhibition, hits mostly inhibitors; actives 2.1% (n = 360,000); AID 504444; further: potency means the concentration at half of the fitted maximal effect; on the % scale 0 is the no-effect control and ±100 the full control effect; nearly all actives have a fitted effect of over 60% in size
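Nrf2 activity is the BugLite luminescence, read 15 min after reagent at room temperature, following CellTiter-Fluor cytotoxicity readout (30 min, 37C). Compound titrations were applied for 18-24 h to 5000 A549 ARE_Fluc cells/well in 5% FBS OPTI-MEM.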
* = called active by the depositor; u = inconclusive; x = not tested or not shown; [ ] = another dose, or the depositor's remark. The call rests on the fitted dose curve; in most records, active means well fitted curve in the direction sought with a large enough effect; inconclusive means small, poorly fitted or top-dose-only effect, or another doubt; inactive means no such curve, though single readings can be large; an effect the other way counts as inactive or inconclusive.

Assay codes – A = A549 tox; B = B2AR arrestin; C = miR-21 reporter; D = Nrf2 ARE act; E = Nrf2 block
O=S(=O)(Nc1nc2ccccc2nc1NCc1ccco1)c1ccc(Cl)cc1
  A: -13%; B: 0%; C: 8%; D: 8%; E: 21µM*

Cc1cccc(S(=O)(=O)Nc2nc3ccccc3nc2NCc2ccco2)c1
  A: 4%; B: 0%; C: -4%; D: 27%; E: u

COc1ccc(C2CC(=O)Oc3c(C(CCN4CCOCC4)c4ccc5c(c4)OCO5)c(OC)cc(OC)c32)cc1 (centres undefined)
  A: -16%; B: x; C: x; D: x; E: -2%

CCOC(=O)c1ccc(OCC(=O)c2ccc(O)cc2O)cc1
  A: -1%; B: 0%; C: -32%; D: -1%; E: u

COC(=O)c1ccc(OCC(=O)c2ccc(O)cc2O)cc1
  A: 0%; B: 1%; C: -36%; D: 0%; E: 8.2µM*

O=C(COc1ccc(Cl)cc1)c1ccc(O)cc1O
  A: -15%; B: -1%; C: -50%; D: 3%; E: 7.3µM*

O=C(COc1ccccc1)OCC(=O)c1ccc(O)cc1O
  A: 7%; B: 0%; C: x; D: 1%; E: 5%

Cc1ccc(NC(=O)CSc2nnc3[nH]c(=O)cc(-c4ccccc4)n23)cc1Cl
  A: 0%; B: x; C: 5%; D: 0%; E: x

O=C(c1ccccc1O)N(Cc1ccccc1)Cc1ccccc1
  A: 4%; B: x; C: x; D: x; E: 3%

O=C(CSC1=Nc2ccccc2C2=NC(CCC(=O)NC3CCCCC3)C(=O)N12)Nc1cccc(C(F)(F)F)c1 (centres undefined)
  A: u; B: x; C: 0%; D: 1%; E: 12µM*

CCOC(=O)c1ccc(CNc2ncnc3nc[nH]c23)cc1
  A: -3%; B: x; C: x; D: x; E: u

Cc1ccccc1Cn1nc(C)c(NC(=O)c2cc(-c3ccco3)on2)c1C
  A: 12%; B: 0%; C: -1%; D: -1%; E: 18%

Cc1ccccc1Cn1nc(C)c(NC(=O)c2cc3nc(-c4ccco4)cc(C(F)(F)F)n3n2)c1C
  A: -10%; B: 0%; C: 6%; D: 2%; E: 21µM*

COc1ccc(NC(=O)Cn2c(=O)n(-c3ccc(OC)cc3)c(=O)c3sc4ccccc4c32)cc1
  A: -2%; B: x; C: -3%; D: 0%; E: 10%

COCCNC(=S)N/N=C(\C)c1ccc(Cl)s1
  A: 1%; B: 10µM*; C: -2%; D: 15%; E: 9%

C/C(=N\NC(=S)NCc1ccccc1)c1ccc(Cl)s1
  A: 10%; B: 0%; C: -2%; D: 17%; E: u

S=c1[nH]nc(-c2cc(-c3ccccc3)n[nH]2)n1/N=C/c1ccccc1
  A: 5%; B: 0%; C: -22%; D: 4%; E: -9%

S=c1[nH]nc(-c2cc(-c3ccccc3)n[nH]2)n1/N=C/C(Br)=C/c1ccccc1
  A: u; B: 0%; C: u; D: u; E: 23µM*

CN1C(C(=O)c2ccccc2)=C(NC(=O)c2ccccc2Br)c2ccccc2S1(=O)=O
  A: -14%; B: x; C: 0%; D: 1%; E: u

Nc1nc2ccccc2n1/N=C/c1ccc([N+](=O)[O-])s1
  A: u; B: 0%; C: 20%; D: 6%; E: 15µM*

Nc1nc2ccccc2n1/N=C/c1cccnc1
  A: -2%; B: x; C: x; D: 15%; E: u

Cc1cc2c(s1)c1cnn(Cc3c(F)cccc3F)c(=O)c1n2C
  A: 7%; B: x; C: x; D: x; E: -16%

CCCCn1c(N)c(N(CCC(C)C)C(=O)COC(=O)c2ccc([N+](=O)[O-])s2)c(=O)[nH]c1=O
  A: -18%; B: 3%; C: x; D: 17%; E: 23µM*

CCCCCN(C(=O)CCC(=O)OCC(=O)c1ccc(C(C)CC)cc1)c1c(N)n(CCCC)c(=O)[nH]c1=O (centres undefined)
  A: u; B: -1%; C: x; D: 6%; E: 10µM*

COc1ccccc1NC(=O)CN1C(=O)C2(SCC(=O)N2c2ccc(C)c(C)c2)c2ccccc21 (centres undefined)
  A: u; B: x; C: u; D: 0%; E: 21µM*

Next section:
Each structure is followed by: A549 tox | B2AR arrestin | miR-21 reporter | Nrf2 ARE act | Nrf2 block
COc1cc(C)c(C)cc1S(=O)(=O)Nc1cccc(-c2ccc(N3CCOCC3)nn2)c1
 : -4% | x | -11% | 3% | x
CN(C)CCCN=c1cc(-c2ccccc2)oc2ccc(Cl)cc12
 : 11% | 0% | -55% | 14µM* | 5%
CCC(C)(C)c1ccc(Oc2cccc(C(=O)O)c2)cc1
 : 1% | 0% | -39% | 4% | u
CCC(C)(C)c1ccc(Oc2ccc(N)cc2)cc1
 : -20% | 0% | u | -2% | 5.8µM*
CCCn1nc([N+](=O)[O-])c(C(C#N)c2nc3ccccc3s2)c(Cl)c1=O (centres undefined)
 : 13µM* | 0% | u | u | u
Clc1ccc(Nc2nc(NCc3ccco3)nc3nccnc23)cc1
 : 1% | x | x | x | 12%
COc1ccc(C(=O)/C=C/c2ccc(OC)c(CN3CCOCC3)c2)cc1
 : -2% | 0% | 28% | u | 6%
COc1ccc(C(=O)/C=C/c2ccc(OC)c(Cn3nnc4ccccc43)c2)cc1
 : u | 0% | 30% | 13%[9.22 µM] | 21µM*
CC(C)(C)OC(=O)NCCc1nnc(SCc2ccccc2)o1
 : -5% | -1% | -5% | -1% | 0%
CC(C)(C)OC(=O)NCCc1nnc(SCc2ccccc2Cl)o1
 : x | 0% | -14% | 2% | 26µM*
O=C(Nc1cccc(Oc2ccc(C(=O)O)c(C(=O)O)c2)c1)c1ccc(-c2ccccc2)cc1
 : 4% | 0% | 28% | 0% | 16µM*
CC(C)(C)C(=O)Nc1ccc(C(=O)Nc2cccc(Oc3ccc(C(=O)O)c(C(=O)O)c3)c2)cc1
 : 2% | 0% | 20% | -2% | 21µM*
O=C(O)c1ccccc1C(=O)Nc1ccc(Oc2ccccc2)cc1
 : -4% | 0% | -7% | -1% | -2%
COc1ccc2nc(SCC(=O)O)nc(C)c2c1
 : -1% | 0% | -14% | 0% | 23%
COc1ccc2nc(SCCOC(=O)Nc3ccc(Cl)cc3)nc(C)c2c1
 : u | -1% | 1% | 0% | 23µM*

Carrying on.
Each structure is followed by: A549 tox | B2AR arrestin | miR-21 reporter | Nrf2 ARE act | Nrf2 block
NN=C1c2cc(S(=O)(=O)NCCO)ccc2-c2ccc(S(=O)(=O)NCCO)cc21
 : 2% | x | x | x | 20%
COc1cc(SC)ccc1C(=O)N1CCN(Cc2ccc3c(c2)OCO3)CC1
 : -3% | -1% | 15% | 1% | 15µM*
O=C(c1ccc(COc2ccc(Cl)cc2)o1)N1CCN(Cc2ccc3c(c2)OCO3)CC1
 : -20% | 0% | 0% | 3% | 23µM*
CCOC(=O)C1CCN(C(=O)c2ccc(SC)cc2OC)CC1
 : -5% | 0% | -2% | 0% | 4%
COc1cccc(OC)c1C(=O)N1CCN(Cc2ccc3c(c2)OCO3)CC1
 : 0% | 0% | -5% | 0% | 9%
CCOC(=O)N1CCN(C(=O)c2ccc(SC)cc2OC)CC1
 : 0% | -1% | 1% | 0% | 12µM*
COc1ccc(C2Nc3ccccc3C(=O)N2Cc2ccccn2)cc1COc1ccc(NC(C)=O)cc1 (centres undefined)
 : -11% | x | x | x | u
COc1ccc(NC(=O)C(OC(=O)CNC(=O)c2ccccc2)c2ccccc2)cc1F (centres undefined)
 : 3% | x | x | x | 13%
COc1cc(OC)c(NC(=O)Nc2cccc(OCc3cc(=O)n4ccccc4n3)c2)cc1Cl
 : -14% | x | -21% | 1% | x
Cc1ccc(NS(=O)(=O)c2cccc(C(=O)NC3CCN(Cc4ccccc4)CC3)c2)cc1
 : -14% | x | x | 2% | u

Record cards (already shown).
CCOC(=O)C1CCN(C(=O)c2ccc(SC)cc2OC)CC1 in the list: A549 tox = -5%; B2AR arrestin = 0%; miR-21 reporter = -2%; Nrf2 ARE act = 0%; Nrf2 block = 4%
COc1ccc(NC(=O)C(OC(=O)CNC(=O)c2ccccc2)c2ccccc2)cc1F (centres undefined) in the list: A549 tox = 3%; B2AR arrestin = x; miR-21 reporter = x; Nrf2 ARE act = x; Nrf2 block = 13%
COc1ccc(C2Nc3ccccc3C(=O)N2Cc2ccccn2)cc1COc1ccc(NC(C)=O)cc1 (centres undefined) in the list: A549 tox = -11%; B2AR arrestin = x; miR-21 reporter = x; Nrf2 ARE act = x; Nrf2 block = u

Source: PubChem (National Center for Advancing Translational Sciences (NCATS))
